# Measured values as given in the supplement of paper PMC3974653.
# Tested on: MTT (mouse pheochromocytoma)
# Test: IC50 of cell viability (ATP content)
# Details: (24 or 48 h)
# Outline: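 After overnight culture at 37°C, 5% CO2 in white 1536-well plates, MTT mouse pheochromocytoma cells were given 23 nl of library compound in DMSO by pintool across 8 concentrations, spanning final 0.5 nM to 46 µM. Following 24 or 48 hrs, CellTiter-Glo luminescence was read after 15 minutes and normalised against positive-control (100%) and DMSO (0%) wells. A four-parameter logistic model provided the IC50.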
row,IC50 of cell viability,Structure (SMILES)
1,> 46 µM,CNC/1=[O]/[Gd+3]23456\7[O-]C(=O)C[N]2(CC[N@]3(CC(=O)[O-]4)C1)CC[N@@]5(CC(=O)[O-]6)C\C(=[O]7)NC [GADODIAMIDE]
2,> 46 µM,CNC1C[N]23CC[N]45CC[N]67CC(=O)[O-]->[Gd+3]<-4<-2<-6(<-[O]=1)(<-[O]=C(C7)NC)(<-[O-]C(=O)C5)<-[O-]C(=O)C3 [Gadodiamide]
3,> 46 µM,COc1cc(Br)c(C[N+]2(CCOCCC3CCC4CC3C4(C)C)CCOCC2)cc1OC (stereo not given) [PINAVERIUM BROMIDE]

row,Structure (SMILES),IC50 of cell viability
1,CC1C[N]23->[Gd+3]45678(<-[O-]C(=O)C[N]->4(CC[N]->5(CC(=O)[O-]->6)CC2)CC[N]->7(CC(=O)[O-]->8)CC3)<-[OH]1 (stereo not given) [GADOTERIDOL],> 46 µM
2,CC1C[N]23->[Gd+3]45678(<-[O-]C(=O)C[N]->4(CC[N]->5(CC(=O)[O-]->6)CC2)CC[N]->7(CC(=O)[O-]->8)CC3)<-[OH]1 (stereo not given) [Gadoteridol],> 46 µM
